Data: article PMC6314990, “∆^9-Tetrahydrocannabinol, a major marijuana component, enhances the anesthetic effect of pentobarbital through the CB1 receptor” (Forensic Toxicology, 2018)
“Also recorded” adds a separate entry of the source.

Test system: pentobarbital-induced sleep in mice
Assay: Cannabinoid-induced potentiation of pentobarbital-induced sleep and effect of CB1 receptor antagonists
Format: in vivo, ddY mice
Details: pentobarbital 40 mg/kg i.p.
Experimental: For the pharmacological studies, cannabinoids and antagonists were suspended in saline containing 1% Tween 80. Sodium pentobarbital was dissolved in saline and injected intraperitoneally (i.p.; 40 mg/kg) for the mice. Male ddY mice weighing 20–25 g were housed in groups of 8. All animals were kept in a temperature-controlled (25 °C) environment with a 12-h light–dark cycle (lights on at 7:00 a.m.) and received food and water ad libitum. […] One percent Tween 80-saline solution was injected instead of cannabinoids or antagonists for the vehicle treated group as a control.

SMILES: Cc1c(C(=O)NN2CCCCC2)nn(-c2ccc(Cl)cc2Cl)c1-c1ccc(Cl)cc1 [SR141716A, N-(piperidin-1-yl)-5-(4-chlorophenyl)-1-(2,4-dichlorophenyl)-4-methyl-1H-pyrazole-3-carboxamide]
- Effect of antagonist pretreatment on CBD-enhanced pentobarbital-induced sleep (SR141716A 2 or 5 mg/kg i.v. 10 min before CBD 10 mg/kg i.v.): not inhibited; also recorded: failed to inhibit
- Effect of antagonist on potentiating effect of ∆9-THC on pentobarbital-induced sleep, low dose (antagonist 2 mg/kg i.v., ∆9-THC 10 mg/kg i.v.): attenuated
- Effect of antagonist pretreatment on potentiation of pentobarbital-induced sleep by ∆9-THC (antagonist 2–10 mg/kg i.v. 10 min before ∆9-THC 10 mg/kg i.v.): decreased dose-dependently
- Effect of antagonist alone (antagonist + Veh) on pentobarbital-induced sleeping time (without ∆9-THC): no change in pentobarbital-induced sleeping time
